Measured values published in PubChem BioAssay (Tox21).
The list shows a part of the results, in another mix than the full data. Results filed as inconclusive are left out. Active and inactive are the calls of the source. Unless noted, calls follow the shape of the dose curve; as a rule, active = well fitted curve in the direction sought with a large enough effect in the repeat runs; inconclusive = weak or mixed curves; inactive = no such curve, though single readings can be large; an effect the other way counts as inactive or inconclusive.

Amino acid sequences for entries named in this document (tags omitted).
UniProt Q03181, whole entry: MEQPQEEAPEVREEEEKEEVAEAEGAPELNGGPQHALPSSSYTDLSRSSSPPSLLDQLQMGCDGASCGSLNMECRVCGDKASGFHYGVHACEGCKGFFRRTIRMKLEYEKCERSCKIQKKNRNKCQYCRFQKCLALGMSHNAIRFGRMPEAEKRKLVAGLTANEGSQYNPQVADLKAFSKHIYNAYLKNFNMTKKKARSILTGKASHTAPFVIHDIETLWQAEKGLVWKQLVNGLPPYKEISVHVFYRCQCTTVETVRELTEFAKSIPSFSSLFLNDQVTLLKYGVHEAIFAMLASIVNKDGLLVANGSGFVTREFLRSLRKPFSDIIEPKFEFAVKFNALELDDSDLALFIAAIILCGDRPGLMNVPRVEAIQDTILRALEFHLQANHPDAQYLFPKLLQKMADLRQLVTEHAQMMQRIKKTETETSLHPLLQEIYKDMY
UniProt P37231, whole entry: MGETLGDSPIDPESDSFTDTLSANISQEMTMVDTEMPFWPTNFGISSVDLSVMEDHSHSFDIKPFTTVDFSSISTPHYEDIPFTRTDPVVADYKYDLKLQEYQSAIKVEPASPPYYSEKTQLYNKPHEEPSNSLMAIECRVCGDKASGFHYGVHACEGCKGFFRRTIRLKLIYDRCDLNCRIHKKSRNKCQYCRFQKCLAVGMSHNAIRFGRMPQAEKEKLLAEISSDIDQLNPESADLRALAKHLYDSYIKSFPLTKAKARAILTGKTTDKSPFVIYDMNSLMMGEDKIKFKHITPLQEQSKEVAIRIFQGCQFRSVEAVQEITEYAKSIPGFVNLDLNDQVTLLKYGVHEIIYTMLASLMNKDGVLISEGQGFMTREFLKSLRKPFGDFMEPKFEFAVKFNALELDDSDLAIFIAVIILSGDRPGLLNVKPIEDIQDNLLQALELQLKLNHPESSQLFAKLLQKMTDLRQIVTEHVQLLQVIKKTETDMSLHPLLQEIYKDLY

What was measured:
[1] = qHTS assay to identify small molecule antagonists of the peroxisome proliferator-activated receptor gamma (PPARg) signaling pathway - cell viability counter screen (AID 743194); settings: PPARg-bla HEK293H viability, CellTiter-Glo luminescence, 17 h, co-treated with 50 nM rosiglitazone; at 81.1 µM (top of the series) unless noted; also: nearly all actives have a fitted effect of over 55% in size
Summary of the method: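 PPARg-UAS-bla HEK293H cells were plated, rested 5 h at 37 C, then treated with compounds plus rosiglitazone (50 nM final) for 17 h at 37 C; viability was then read by CellTiter-Glo luminescence after 30 min at room temperature.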

[2] = qHTS assay for small molecule agonists of the antioxidant response element (ARE) signaling pathway - cell viability counter screen (AID 743203; calls by dose curve; also: nearly all actives have a fitted effect of over 55% in size); settings: ARE-bla HepG2 viability, CellTiter-Glo luminescence, 16 h; at 73.3 µM (top of the series)
Summary of the method: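 Compounds in DMSO were pinned onto ARE-bla HepG2 cells plated 5 hrs earlier at 2,000 cells/well. Sixteen hours later at 37C/5% CO2, CellTiter-Glo was added and luminescence measured after 30 min at room temperature.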

[3] = qHTS assay for small molecule activators of the heat shock response signaling pathway - cell viability counter screen (AID 743209); settings: HSE-bla HeLa viability, CellTiter-Glo luminescence, 5 h; at 81.1 µM (top of the series) unless noted; also: nearly all actives have a fitted effect of over 50% in size
Summary of the method: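 Counter screen for cytotoxicity in HeLa HSE-bla reporter cells. Treatment was 5 h at 37 C; viability was detected by luminescent ATP assay (CellTiter-Glo) in the same wells as the beta-lactamase read.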

[4] = qHTS assay for small molecule activators of the heat shock response signaling pathway (AID 743210; active = well fitted activation curve with a large enough effect in the signal ratio in the repeat runs, with a control signal flat, not every such curve was filed as active; the % refers to the signal ratio;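 also: HeLa cells with beta-lactamase reporter driven by heat shock elements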); settings: HeLa HSE-bla reporter, beta-lactamase ratio, 5 h; at 81.1 µM (top of the series) unless noted
Summary of the method: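 Reporter gene assay: HeLa cells stably bearing an HSE-bla construct, compound treatment 5 h at 37 C, LiveBLAzer substrate 2.5 h at RT, fluorescence intensity.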

[5] = biological target: Peroxisome proliferator-activated receptor delta (Homo sapiens) (UniProt Q03181); test: qHTS assay to identify small molecule agonists of the peroxisome proliferator-activated receptor delta (PPARd) signaling pathway (AID 743212; calls by dose curve;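 also: HEK293H cells with PPARd UAS beta-lactamase reporter GeneBLAzer system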); settings: HEK293H PPARd-UAS-bla, beta-lactamase FRET ratio, 17 h; at 81.1 µM (top of the series) unless noted
Summary of the method: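 A PPARd-bla HEK293H line with beta-lactamase under an Upstream Activator Sequence is treated with compounds at 37 C. Substrate loading for 2 h at room temperature precedes the fluorescence measurement.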

[6] = qHTS assay to identify small molecule that activate the aryl hydrocarbon receptor (AhR) signaling pathway - cell viability counter screen (AID 743086); settings: HepG2-AhR-luc viability, CellTiter-Fluor, 24 h; at 70.3 µM (top of the series);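 also: HepG2 liver cells carrying the AhR DRE luciferase reporter; nearly all actives have a fitted effect of over 45% in size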
Description: U.S. Tox21 Program National Center for Advancing Translational Sciences [NCATS] NIH Chemical Genomics Center [NCGC] U.S. Environmental Protection Agency [EPA] National Institutes of Environmental Health Sciences [NIEHS] National Toxicology Program [NTP] U.S. Food and Drug Administration [FDA] Tox21 Assay overview: The Aryl hydrocarbon Receptor (AhR), a member of the family of basic helix-loop-helix transcription factors, is crucial to adaptive responses to environmental changes. AhR mediates cellular responses to environmental pollutants such as aromatic hydrocarbons through induction of phase I and II enzymes but also interacts with other nuclear receptor signaling pathways A cell based HepG2-AhR-luc assay (HG2L7.5c1 cell line, developed by Dr. Michael S. Denison, University of California at Davis) was used to assess the activation of AhR. HepG2 (human hepatocellular carcinoma) cells were stably transfected with an Ah receptor-responsive firefly luciferase reporter gene plasmid containing 20 dioxin responsive elements and luciferase reporter gene. Increased luciferase activity can be used to identify the compounds that induce AhR activation. The cytotoxicity of the compounds screened against the HepG2-AhR-luc cell line was tested in parallel by measuring the cell viability using CellTiter-Fluor assay in the same wells.
Tox21 Assay Protocol Summary: 4000 cells in 5 uL/well were dispensed into white wall/solid bottom 1536-well plates using a Multidrop Combi (Thermo Fisher Scientific Inc., Waltham, MA) dispenser. After the assay plates were incubated at 37C for 5 h, 23 nL of compound or DMSO vehicle was transferred to the assay plates by a pintool station (Kalypsys, San Diego, CA). […] The fluorescence intensity in the plates was measured using a ViewLux plate reader (PerkinElmer, Shelton, CT), followed by the addition of 4 uL of ONE-Glo Luciferase Assay reagent (Promega) using an FRD (Aurora Discovery). After the assay plates were incubated at room temperature for 30 min, luminescence intensity was measured using a ViewLux plate reader (Perkin Elmer).

[7] = biological target: Peroxisome proliferator-activated receptor gamma (Homo sapiens) (UniProt P37231); test: qHTS assay to identify small molecule agonists of the peroxisome proliferator-activated receptor gamma (PPARg) signaling pathway (AID 743094; active = well fitted activation curve with a large enough effect in the signal ratio in the repeat runs, not every such curve was filed as active; the % refers to the signal ratio); settings: HEK293H PPARg-UAS-bla, beta-lactamase FRET ratio, 17 h; at 57 µM (top of the series)
Summary of the method: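 Following 5 h plating at 37C, PPARg-bla HEK293H cells receive compound or DMSO for 17 h; fluorescence intensity is recorded after LiveBLAzer B/G loading for 1 h at room temperature.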

[8] = qHTS assay for small molecule agonists of the antioxidant response element (ARE) signaling pathway (AID 743202; active = well fitted activation curve with a large enough effect in the signal ratio in the repeat runs, not every such curve was filed as active; the % refers to the signal ratio); settings: HepG2 ARE-bla reporter, beta-lactamase FRET, 16 h; at 73.3 µM (top of the series)
Summary of the method: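 Compounds delivered in DMSO to ARE-bla HepG2 cells (2,000 cells/well, pre-incubated 5 h) and left 16 h at 37 C. LiveBLAzer B/G FRET substrate then added for 2 h at RT before fluorescence reading.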

[9] = qHTS assay to identify small molecule agonists of the peroxisome proliferator-activated receptor delta (PPARd) signaling pathway - cell viability counter screen (AID 743211); settings: PPARd-bla HEK293H viability, CellTiter-Glo luminescence, 17 h; at 81.1 µM (top of the series) unless noted; also: nearly all actives have a fitted effect of over 55% in size
Summary of the method: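 Viability of GeneBLAzer PPARd UAS-bla HEK293H cells was assessed after 17 h compound incubation at 37C, using CellTiter-Glo reagent added after the reporter read and luminescence recorded 30 min later.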

[10] = biological target: Peroxisome proliferator-activated receptor gamma (Homo sapiens) (UniProt P37231); test: qHTS assay to identify small molecule antagonists of the peroxisome proliferator-activated receptor gamma (PPARg) signaling pathway (AID 743191; calls by dose curve; also: nearly all actives have a fitted effect of over 30% in size); settings: HEK293H PPARg-UAS-bla, beta-lactamase ratio, antagonist, 17 h; at 81.1 µM (top of the series)
Description: U.S. Tox21 Program National Center for Advancing Translational Sciences [NCATS] NIH Chemical Genomics Center [NCGC] U.S. Environmental Protection Agency [EPA] National Institutes of Environmental Health Sciences [NIEHS] National Toxicology Program [NTP] U.S. Food and Drug Administration [FDA] Tox21 Assay Overview: The peroxisome proliferator-activated receptors (PPARs) are lipid-activated transcription factors of the nuclear receptor superfamily with three distinct subtypes namely PPAR alpha, PPAR delta (also called PPAR beta) and PPAR gamma (PPARg). All these subtypes heterodimerize with Retinoid X receptor (RXR) and these heterodimers regulate transcription of various genes. PPAR-gamma receptor (glitazone receptor) is involved in the regulation of glucose and lipid metabolism. […]
Tox21 Assay Protocol Summary: PPARg-bla cells were dispensed at 3000 cells/6uL/well in 1536-well black wall/clear bottom plates using a Multidrop Combi (Thermo Fisher Scientific, Waltham, MA) dispenser. […] After 1 uL of LiveBLAzerTM B/G FRET substrate was added using a Bioraptr Flying Reagent Dispenser (FRD) workstation (Beckman Coulter, Indianapolis, IN, USA), the plates were incubated at room temperature for 1 h, and fluorescence intensity was measured by an Envision plate reader (PerkinElmer, Shelton, CT).
% is scaled to controls: 0 for no effect and ±100 for the full control effect.

CCC(=O)N(c1ccccc1)C1(COC)CCN(CCc2cccs2)CC1
inactive: activity change, negative = cytotoxicity [1] -7.06% | viability change, negative = cytotoxic [2] -3.58% | activity change, negative = cytotoxicity [3] -1.25% | activation [4] -1.78% | activation [5] 7.57%

O=[N+]([O-])C(Cl)(Cl)Cl
inactive: viability change, negative = cytotoxic [6] 3.86% | activation [7] 2.55% | activity change, negative = cytotoxicity [1] 14.4% [at 62.6 µM] | activation [8] -7.92% | viability change, negative = cytotoxic [2] -5.18% | activity change, negative = cytotoxicity [3] 14.2% [at 62.6 µM] | activation [4] -0.765% [at 62.6 µM] | activity change, negative = cytotoxicity [9] 4.46% [at 62.6 µM] | activation [5] 0.364% [at 62.6 µM]

CCC(=O)N(c1ccccc1)C1(COC)CCN(CCn2nnn(CC)c2=O)CC1
inactive: viability change, negative = cytotoxic [6] -2.51% | activation [7] -4.35% | ratio activity, negative = inhibition [10] 4.05% | activity change, negative = cytotoxicity [1] 2.19% | activation [8] 5.82% | viability change, negative = cytotoxic [2] 11.1% | activity change, negative = cytotoxicity [3] -8.2% | activation [4] -0.117% | activity change, negative = cytotoxicity [9] -2.81% | activation [5] -1.16%

CCC(=O)N(c1ccccc1)C1CCN(CCc2ccccc2)CC1
inactive: viability change, negative = cytotoxic [6] -14.3% | activation [7] -5.16%
